These are literature values, as cited in article PMC7238120, “Strong and Selective Inhibitory Effects of the Biflavonoid Selamariscina A against CYP2C8 and CYP2C9 Enzyme Activities in Human Liver Microsomes” (Pharmaceutics, 2020).

Amino acid sequences for entries named in this document (tags omitted).
UniProt P11712, whole entry: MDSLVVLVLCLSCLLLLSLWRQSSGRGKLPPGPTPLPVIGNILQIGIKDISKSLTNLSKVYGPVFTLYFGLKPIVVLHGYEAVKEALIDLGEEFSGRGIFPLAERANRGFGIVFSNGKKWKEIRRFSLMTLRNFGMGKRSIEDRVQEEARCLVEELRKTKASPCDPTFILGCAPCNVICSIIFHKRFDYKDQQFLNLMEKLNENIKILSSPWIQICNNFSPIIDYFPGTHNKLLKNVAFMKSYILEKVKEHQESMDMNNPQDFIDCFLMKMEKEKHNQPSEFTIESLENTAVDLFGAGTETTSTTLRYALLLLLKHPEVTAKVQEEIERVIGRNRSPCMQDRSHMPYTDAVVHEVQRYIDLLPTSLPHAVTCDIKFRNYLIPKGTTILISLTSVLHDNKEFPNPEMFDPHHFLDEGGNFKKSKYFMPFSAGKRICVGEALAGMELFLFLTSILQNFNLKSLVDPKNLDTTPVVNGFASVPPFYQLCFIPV

This data set concerns the target CYP2C9 (Homo sapiens, UniProt P11712). The following applies: read-out: Ki, CYP2C9, known inhibitor; cited from earlier work.

For orientation: Ki means the equilibrium dissociation constant of an inhibitor or competing ligand from its target. On to `OC(Cn1cncn1)(Cn1cncn1)c1ccc(F)cc1F` [fluconazole], for which the Ki is 0.28 µM.
